Measured values taken from ChEMBL document CHEMBL2176977 (J Med Chem, 2012).

Assay: Partial agonist activity at KOR in guinea pig ileum assessed as inhibition of electrically-stimulated twitch

Structure (SMILES)	Imax [%]
COC(=O)/C=C/C(=O)O[C@@]12CCC(=O)[C@@H]3Oc4c(O)ccc5c4[C@@]31CCN(CC1CC1)[C@@H]2C5	30
COC(=O)/C=C/C(=O)NC[C@H]1C[C@@]23CC[C@]1(OC)[C@@H]1Oc4c(O)ccc5c4[C@@]12CCN(CC1CC1)[C@@H]3C5	36
